Test results reported in article PMC9263378.

Target: His-tagged human insulin-like growth factor-2 receptor (hIGF2R-His) (human) (UniProt P11717)
Experiment: SPR; Biacore; hIGF2R-His amine-coupled (EDC/NHS) to a CM5 chip (6,311 RUs); ligands in PBS + 0.005% Tween 20, twofold series 10 to 0.019 ug/ml, 30 ul/min; fitted to single-site and two-state kinetic models and equilibrium binding

Substance: Human HIS-tagged STC1 (hSTC1-His) (from UniProt P52823 34-247) (ligand)
- Kd: 10 to 20 nM
- binding response: < 1000 RUs
